Like-named read-outs stand apart in the source and are kept apart here.
Legend:
[1] = Formation constants (Kf) by UV–visible spectral displacement method, α-CD; format: physicochemical; details: UV–visible spectral displacement with MO (MO itself by direct titration), SD <10%
[2] = α-CD; cited from earlier work
[3] = β-CD, cited from earlier work
[4] = Formation constants (Kf) by UV–visible spectral displacement method, HP-β-CD; format: physicochemical; details: UV–visible spectral displacement with MO (MO itself by direct titration), SD <10%
[5] = RAMEB, cited from earlier work
[6] = cited from earlier work
[7] = HP-β-CD, cited from earlier work
[8] = CRYSMEB, cited from earlier work
[9] = Formation constants (Kf) by UV–visible spectral displacement method, β-CD; format: physicochemical; details: UV–visible spectral displacement with MO (MO itself by direct titration), SD <10%

isoeugenol [Isoeugenol (3)]
Formation constant (Kf) [1]: 178 M⁻¹
Formation constant (Kf) [2]: 85 M⁻¹
Formation constant (Kf) ([3]; ref 21): 304 M⁻¹
Formation constant (Kf) ([3]; ref 24): 255 M⁻¹
Formation constant (Kf) [4]: 418 M⁻¹
Formation constant (Kf) ([5]; ref 21): 547 M⁻¹
Formation constant (Kf) ([5]; ref 24): 514 M⁻¹
log P [6]: 2.379
Formation constant (Kf) ([7]; ref 21): 452 M⁻¹
Formation constant (Kf) ([7]; ref 24): 441 M⁻¹
Formation constant (Kf) ([8]; ref 21): 240 M⁻¹
Formation constant (Kf) ([8]; ref 24): 263 M⁻¹
Formation constant (Kf) [9]: 364 M⁻¹

Source: PMC4187030 (2014)
